Reference: ChEMBL document CHEMBL3769379, “SAR Studies of 5-Aminopyrazole-4-carboxamide Analogues as Potent and Selective Inhibitors of Toxoplasma gondii CDPK1” (ACS Med Chem Lett, 2015)

Columns and labels:
in vivo [1] = conditions: BALB/c, mouse, po, 10 mg/kg
in vivo [2] = conditions: BALB/c, mouse, po, 10 mg/kg; remark: listed apart in the source
in vivo [3] = conditions: BALB/c, mouse, po, 10 mg/kg; remark: listed apart in the source
in vivo [4] = conditions: BALB/c, mouse, po, 10 mg/kg; remark: listed apart in the source
Toxoplasma gondii = assay: microbe, parasite or virus in culture; conditions: 44 h

Row | Structure (SMILES) | Tmax (in vivo [1]) | half-life (in vivo [2]) | AUC (in vivo [3]) | CL/F (in vivo [4]) | EC50 (Toxoplasma gondii)
1 | CC(C)(C)n1nc(-c2cnc3cc(OC4CC4)ccc3c2)c(C(N)=O)c1N | 2.17 h | 4.83 h | 308 µM·h | 1.4 mL/min/kg | 
2 | CC(C)(C)n1nc(-c2ccc3nc(OC4CC4)ccc3c2)c(C(N)=O)c1N | 2.67 h | 9.32 h | 44.6 µM·h | 10.7 mL/min/kg | 
3 | CC(C)Oc1ccc2cc(-c3nn(C(C)(C)C)c(N)c3C(N)=O)cnc2c1 |  |  |  |  | 1210 nM
4 | CCOc1ccc2cc(-c3nn(C(C)(C)C)c(N)c3C(N)=O)cnc2c1 |  | 1.47 h | 40.5 µM·h | 11.8 mL/min/kg | 
5 | CCOc1ccc2cc(-c3nn(CC4CC4)c(N)c3C(N)=O)cnc2c1 |  |  |  |  | 1210 nM
6 | CCOc1ccc2cc(-c3nn(CC(C)(C)CO)c(N)c3C(N)=O)cnc2c1 |  |  |  |  | 1190 nM
7 | CCOc1ccc2cc(-c3nn(CC(C)(C)CO)c(N)c3C(N)=O)ccc2n1 | 0.5 h | < 0.5 h | 2.33 µM·h | 186 mL/min/kg | 
8 | CC(C)(C)n1nc(-c2cnc3cc(OCC4CC4)ccc3c2)c(C(N)=O)c1N |  | 9.15 h |  | 7.1 mL/min/kg | 1470 nM
9 | CC(C)(C)n1nc(-c2cnc3cc(OC4CCC4)ccc3c2)c(C(N)=O)c1N | 0.5 h | 0.7 h | 7.63 µM·h | 57 mL/min/kg | 
10 | CCOc1ccc2cc(-c3nn(CC4CC4)c(N)c3C(N)=O)ccc2n1 |  |  |  |  | 480 nM
11 | CCOc1ccc2cc(-c3nn(C4CCCCC4)c(N)c3C(N)=O)cnc2c1 |  | 3.4 h |  | 16.4 mL/min/kg | 330 nM
12 | CCOc1ccc2cc(-c3nn(C(C)(C)C)c(N)c3C(N)=O)ccc2n1 |  | 2.23 h |  | 16.7 mL/min/kg | 
